# Binding of CDR-mutated scFvs to a peptide of the spike HR2 region

From the AlphaSeq antibody data of Li et al. 2023 (doi:10.1038/s41467-023-39022-2), copy in the FLAb collection.

The target is the same throughout: PDVDLGDISGINAS, from the HR2 region of SARS-CoV-2 spike.

Each scFv is VH, three GGGGS repeats, VL, as in the parent Ab-14, and differs from it in the CDRs of the heavy chain only.
VH: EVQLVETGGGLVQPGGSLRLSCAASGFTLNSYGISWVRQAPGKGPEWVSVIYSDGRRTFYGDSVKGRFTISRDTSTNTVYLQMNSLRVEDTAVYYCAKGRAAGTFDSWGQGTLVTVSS
VL: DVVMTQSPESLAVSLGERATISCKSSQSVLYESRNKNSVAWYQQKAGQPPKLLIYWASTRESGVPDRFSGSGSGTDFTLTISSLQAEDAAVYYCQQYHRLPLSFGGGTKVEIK

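The starting antibody came from a phage panning campaign against this peptide. Designed CDR sequences, proposed from the first random library and measured here. Their group label is 14H_En_Gen (En: ensemble of fine-tuned language models; Gen: genetic algorithm). The assay is AlphaSeq: two haploid yeast populations carry antibody and antigen on their surface. After mating in shaken culture at 30 °C for 16 h, diploids were selected and their barcode pairs sequenced. Each replicate has its own calibration line, from reference interactions of the BCL2 family. Each pool was mated in six replicate cultures.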

Variants are written as CDR1, CDR2 and CDR3 of the heavy chain (limits as in the source). Parent: GFTLNSYGIS, VIYSDGRRTFYGDSVK, GRAAGTFDS.
The read-out is the apparent dissociation constant on a log10 scale (nM): the lower, the stronger.
A mean of the replicates is given; it leaves out those without a signal.
"ND" marks a missing value. The strain was present, yet no cells mated with the target were sequenced in that replicate, which points to weak or no binding.
A sequence measured in both rounds can read differently, since the two assays cover different ranges.

CDR-H1,CDR-H2,CDR-H3,log10 Kd (nM) by replicate,mean log10 Kd (nM),empty controls
GFDLNEYGIS,VIYADGQRTAYANSVK,GEVAGTFDV,-0.16 -0.54 -0.51 -0.72 -0.56 -0.45,-0.49,0/18
GFDLNEYGIS,VIYADGMRTAYSDSVK,GNQAGTFDV,ND ND ND ND ND ND,ND,0/18
GFDLDEYGIS,VIYADGKRTFYADSVK,GNTAGTFDV,-0.59 -0.74 -0.91 -0.85 -1.12 -0.83,-0.84,0/18
GFDLDEYGIS,VIYADGRRTAYSDSVK,GNTAGTFDV,-1.11 -1.17 -1.17 -1.24 -1.18 -0.86,-1.12,0/18
GFDLDEYGIS,VIYADGRRTAYADDVK,GNVAGTFDT,-0.25 -0.55 -0.70 -0.79 -0.65 -0.54,-0.58,0/18
GFDLNEYGIS,VIYADGMRTAYADTVK,GEVAGTFDV,-0.80 -1.00 -0.35 -1.11 -0.73 -0.36,-0.72,1/18 (1.93)
GFDLDEYGIS,VIYADGMRKAYADSVK,GNVAGTFDT,ND ND 0.80 0.41 ND ND,0.60,0/18
GFDLNEYGIS,VIYADGRRTAYIDSVK,GQNAGTFDV,1.51 0.02 0.68 -0.12 0.54 -0.49,0.36,0/18
GFDLDEYGIS,VIYADGRRTVYADSVK,GENAGTFDV,ND ND ND -1.04 -1.44 -0.71,-1.06,0/18
GFDLNEYGIS,VIYADGVRTSYADSVK,GENAGTFDV,-0.27 -0.45 -0.47 -0.82 -1.06 -0.55,-0.60,0/18
GFDLNEYGIS,VIYADGMRTAYADSVK,GNVAGTFDE,-0.55 -0.86 -0.95 -1.03 -0.80 -0.72,-0.82,0/18
GFDLNEYGIS,VIYADGLRTAYIDSVK,GENAGTFDV,-1.08 -1.12 -0.61 -1.40 -1.30 -0.93,-1.07,0/18
GFDLDEYGIS,VIYADGQRTVYADSVK,GENAGTFDV,0.55 0.19 0.22 0.36 0.46 0.53,0.38,2/18 (2.84)
GFDLNEYGIS,VIYADGMRTYYADSVK,GNNAGTFDL,-0.04 0.00 -0.30 -0.46 -0.18 -0.29,-0.21,0/18
GFDLDEYGIS,VIYADGLRTAYADSVK,GQNAGTFDV,-0.03 -0.74 -0.67 -0.71 -1.12 -0.55,-0.64,0/18
GFDLDEYGIS,VIYADGMRTAYTDSVK,GENAGTFDT,-0.12 -0.38 -0.30 -0.23 -0.57 0.06,-0.25,0/18
GFDLNEYGIS,VIYADGMRTAYSDDVK,GANAGTFDV,-0.32 -0.30 -0.72 -0.39 -0.72 -0.09,-0.42,1/18 (2.09)
GFDLNEYGIS,VIYADGRRKAYADSVK,GNNAGTFDV,0.46 -0.29 -0.36 0.39 0.85 -0.08,0.16,0/18
GFDLNEYGIS,VIYADGSRTAYSDSVK,GNVAGTFDQ,0.19 -0.22 -0.19 -0.20 0.23 -0.01,-0.03,0/18
GFDLNEYGIS,VIYADGRRTYYADSVK,GNVAGTFDT,-0.56 -0.62 -0.44 -0.77 -0.81 -0.53,-0.62,0/18
GFDLDEYGIS,VIYADGSRKAYADSVK,GNVAGTFDV,-0.16 ND 0.52 -0.42 -0.15 ND,-0.05,0/18
GFDLDEYGIS,VIYADGMRTAYADSVK,GNEAGTFDT,0.29 -0.05 -0.23 -0.51 0.13 0.09,-0.05,0/18
GFDLNEYGIS,VIYADGQRTAYADDVK,GEVAGTFDI,-0.43 -0.81 -0.65 -0.66 -0.89 -0.63,-0.68,0/18
GFDLNEYGIS,VIYADGVRTAYSDSVK,GNTAGTFDQ,-0.16 -0.31 -0.23 -0.38 -0.43 -0.07,-0.26,0/18
GFDLDEYGIS,VIYADGKRTAYADSVK,GNTAGTFDQ,-0.45 -0.99 -0.88 -0.80 -1.35 -1.00,-0.91,0/18
GFDLDEYGIS,VIYADGMRTAYANSVK,GEVAGTFDL,0.50 0.43 -0.13 -0.24 -0.16 -0.01,0.07,0/18
GFDLNEYGIS,VIYADGVRKSYADDVK,GNVAGTFDV,-0.64 -0.86 -1.00 -1.36 -1.28 -0.81,-0.99,0/18
GFDLNEYGIS,VIYADGMRTVYADDVK,GENAGTFDV,-0.73 -0.39 -0.56 -0.75 -0.53 -0.48,-0.57,0/18
GFDLDEYGIS,VIYADGQRTAYADSVK,GTNAGTFDI,-0.66 -0.99 -1.07 -1.17 0.22 -1.66,-0.89,0/18
GFDLNEYGIS,VIYADGMRTAYVDSVK,GETAGTFDI,0.01 -0.20 -0.32 -0.64 0.39 0.19,-0.10,0/18
GFDLNEYGIS,VIYADGMRTFYADDVK,GSNAGTFDV,1.34 1.35 1.19 0.67 1.07 1.21,1.14,0/18
GFDLNEYGIS,VIYADGMRTAYADNVK,GNVAGTFDM,0.03 0.16 -0.83 -0.77 -0.53 -0.44,-0.40,0/18
GFDLNEYGIS,VIYADGMRTVYTDSVK,GENAGTFDI,-0.07 -0.43 -0.65 -0.50 -0.87 -0.44,-0.49,0/18
GFDLNEYGIS,VIYADGKRSAYADSVK,GNNAGTFDV,-0.25 -1.04 -0.61 -0.74 -0.31 0.20,-0.46,0/18
GFDLNEYGIS,VIYADGKRTAYADDVK,GNNAGTFDI,-0.01 -0.07 -0.31 -0.22 -0.27 -0.33,-0.20,0/18
GFDLDEYGIS,VIYADGMRTYYADSVK,GEVAGTFDT,-0.48 -0.28 -0.54 -0.65 -0.24 -0.11,-0.38,0/18
GFDLDEYGIS,VIYADGSRTAYTDSVK,GENAGTFDV,0.57 2.21 -0.04 0.12 0.85 1.04,0.79,0/18
GFDLNEYGIS,VIYADGMRTAYSDDVK,GETAGTFDL,0.55 0.34 -0.12 0.17 0.07 -0.03,0.16,1/18 (2.96)
GFDLDEYGIS,VIYADGMRTAYADSVK,GNEAGTFDL,-0.97 -0.50 ND -0.97 0.29 0.34,-0.36,0/18
GFDLNEYGIS,VIYADGYRTAYADSVK,GENAGTFDV,-0.45 -0.59 -0.88 -0.72 -0.58 -0.58,-0.63,0/18
GFDLNEYGIS,VIYADGMRTFYADDVK,GEVAGTFDV,0.16 0.46 0.12 0.13 0.63 0.11,0.27,0/18
GFDLNEYGIS,VIYADGMRTFYADSVK,GNQAGTFDL,-0.28 -0.56 -0.54 -0.81 -0.30 -0.41,-0.48,0/18
GFDLNEYGIS,VIYADGMRTSYSDSVK,GNQAGTFDV,-0.15 -0.18 -0.29 -0.45 -0.34 -0.39,-0.30,0/18
GFDLNEYGIS,VIYADGQRTAYADDVK,GENAGTFDI,-0.03 -0.22 -0.33 -0.22 0.01 0.01,-0.13,0/18
GFDLDEYGIS,VIYADGKRTAYANSVK,GEVAGTFDL,-0.47 -0.24 -0.67 -0.55 -0.68 -0.45,-0.51,0/18
GFDLNEYGIS,VIYADGRRTAYSDSVK,GNVAGTFDQ,-1.22 -0.51 -1.45 -1.19 -1.50 -1.10,-1.16,1/18 (0.92)
GFDLNEYGIS,VIYADGKRTAYADSVK,GNQAGTFDI,0.03 1.35 0.00 1.35 1.01 ND,0.75,0/18
GFDLDEYGIS,VIYADGMRTAYTDSVK,GNVAGTFDM,-0.19 -0.07 -0.40 -0.61 -0.30 -0.23,-0.30,0/18
GFDLNEYGIS,VIYADGQRTAYTDSVK,GQNAGTFDV,0.17 -0.59 0.09 0.34 1.32 -0.09,0.21,0/18

Excerpt, the first 4 entries:

| CDR-H1 | CDR-H2 | CDR-H3 | log10 Kd (nM) by replicate | mean log10 Kd (nM) | empty controls |
|---|---|---|---|---|---|
| GFDLNEYGIS | VIYADGQRTAYANSVK | GEVAGTFDV | -0.16 -0.54 -0.51 -0.72 -0.56 -0.45 | -0.49 | 0/18 |
| GFDLNEYGIS | VIYADGMRTAYSDSVK | GNQAGTFDV | ND ND ND ND ND ND | ND | 0/18 |
| GFDLDEYGIS | VIYADGKRTFYADSVK | GNTAGTFDV | -0.59 -0.74 -0.91 -0.85 -1.12 -0.83 | -0.84 | 0/18 |
| GFDLDEYGIS | VIYADGRRTAYSDSVK | GNTAGTFDV | -1.11 -1.17 -1.17 -1.24 -1.18 -0.86 | -1.12 | 0/18 |

Three control strains display no target. For all heavy chain designs, 1% of the pairings with them gave a signal, with a median of 2.08 and one signal in twenty below 0.84, so weak values seen in few replicates may be background. For each scFv, signals with the empty controls are counted beside the result, with their mean in brackets.
The authors' rule: three or more of the six replicates give a measured affinity, fewer mean a poor binder.